Assay: Solubility in water by UPLC
Assay type: physicochemical

Q: For “(R)-8-chloro-1-methyl-2,3,4,5-tetrahydro-1H-3-benzazepine oxoglutarate salt [Compound 1 Oxoglutarate Salt, Form I]”, which solubility in water is on record?
A: Its solubility in water is > 65.1 mg/mL.

From patent publication US9365521B2, “Non-hygroscopic salts of 5-HT2C agonists” (Arena Pharmaceuticals, Inc., priority 2010, dated 2016)
